Results taken from patent US6545011B2, “Substituted 4,9-dihydrocyclopenta[imn]phenanthridine-5-ones, derivatives thereof and their uses” (Guilford Pharmaceuticals Inc., priority 2000, dated 2003).

By UniProt entry, the sequences of proteins in these tests, tags left out.
UniProt P09874, whole entry: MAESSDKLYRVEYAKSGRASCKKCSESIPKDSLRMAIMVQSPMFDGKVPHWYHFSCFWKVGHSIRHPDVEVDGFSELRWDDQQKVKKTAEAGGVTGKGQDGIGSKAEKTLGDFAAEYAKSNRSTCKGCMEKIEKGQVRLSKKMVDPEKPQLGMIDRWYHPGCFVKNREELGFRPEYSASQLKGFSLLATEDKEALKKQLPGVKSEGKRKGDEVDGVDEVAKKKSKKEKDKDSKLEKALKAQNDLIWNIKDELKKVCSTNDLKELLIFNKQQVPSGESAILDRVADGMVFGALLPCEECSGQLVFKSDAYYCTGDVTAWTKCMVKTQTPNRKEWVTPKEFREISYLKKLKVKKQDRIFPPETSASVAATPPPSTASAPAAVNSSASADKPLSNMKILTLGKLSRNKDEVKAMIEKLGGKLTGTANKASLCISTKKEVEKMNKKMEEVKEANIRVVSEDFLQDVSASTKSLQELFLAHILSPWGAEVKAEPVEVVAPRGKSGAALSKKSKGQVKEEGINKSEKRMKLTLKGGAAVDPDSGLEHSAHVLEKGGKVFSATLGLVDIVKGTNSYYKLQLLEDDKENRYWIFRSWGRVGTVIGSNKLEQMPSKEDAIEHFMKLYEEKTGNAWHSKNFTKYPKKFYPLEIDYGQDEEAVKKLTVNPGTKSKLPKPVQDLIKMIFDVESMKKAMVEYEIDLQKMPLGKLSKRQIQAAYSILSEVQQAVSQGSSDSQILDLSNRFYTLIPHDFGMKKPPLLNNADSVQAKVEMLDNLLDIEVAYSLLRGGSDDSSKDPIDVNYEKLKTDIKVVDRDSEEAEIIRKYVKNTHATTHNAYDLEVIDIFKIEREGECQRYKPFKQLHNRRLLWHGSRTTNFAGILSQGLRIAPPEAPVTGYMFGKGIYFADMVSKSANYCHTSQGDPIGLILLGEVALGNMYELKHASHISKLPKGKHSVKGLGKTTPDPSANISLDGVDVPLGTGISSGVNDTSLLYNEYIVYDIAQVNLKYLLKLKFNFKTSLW

Biological target: purified recombinant human PARP (Homo sapiens, UniProt P09874)
Test: PARP enzyme assay (IC50), [3H]NAD incorporation
Settings: read-out: Inhibition IC50, approximate values, tested form: di-Na salt
Protocol: A convenient method to determine IC50 of a PARP inhibitor compound is a PARP assay using purified recombinant human PARP from Trevigan (Gaithersburg, Md.), as follows: The PARP enzyme assay is set up on ice in a volume of 100 microliters consisting of 100 mM Tris-HCl (pH 8.0), 1 mM MgCl2, 28 mM KCl, 28 mM NaCl, 0.1 mg/ml of DNase I activated herring sperm DNA (Sigma, Mo.), 3.0 micromolar [3H]nicotinamide adenine dinucleotide (470 mci/mmole), 7 micrograms/ml PARP enzyme, and various concentrations of the compounds to be tested. The reaction is initiated by incubating the mixture at 25° C. After 15 minutes of incubation, the reaction is terminated by adding 500 microliters of ice cold 20% (w/v) trichloroacetic acid. The precipitate formed is transferred onto a glass fiber filter (Packard Unifilter-GF/B) and washed three times with ethanol. After the filter is dried, the radioactivity is determined by scintillation counting.
Using the PARP assay described above, approximate IC50 (μM) values were obtained as shown in the following Table III, which also include specific embodiments of the compounds of the present invention: […]

O=c1[nH]c2ccc(S(=O)(=O)O)c3c2c2c(cc(S(=O)(=O)O)cc12)C3
IC50: 2.6 µM
